Data taken from ChEMBL document CHEMBL4304746, “Design, Synthesis, and Preclinical Efficacy of Novel Nonretinoid Antagonists of Retinol-Binding Protein 4 in the Mouse Model of Hepatic Steatosis” (J Med Chem, 2019).

Experiment: in vitro
Details: human, microsomes

O=C(O)c1ccccc1NC(=O)N1CCC(c2ccccc2C(F)(F)F)CC1
remaining at 0.5 h, 10 µM: 3%
